# Results reported in ChEMBL document CHEMBL1201862, “PubChem BioAssay data set” (2004).
# The list shows a part of the results, in another mix than the full data. Only a part of the results of these assays is listed, not drawn at random. Calls of active or inactive are those of the source. The rule behind the calls is not given here.
# Biological target: T1, DNA polymerase kappa (Homo sapiens) (UniProt Q9UBT6)
# T1 sequence (whole entry): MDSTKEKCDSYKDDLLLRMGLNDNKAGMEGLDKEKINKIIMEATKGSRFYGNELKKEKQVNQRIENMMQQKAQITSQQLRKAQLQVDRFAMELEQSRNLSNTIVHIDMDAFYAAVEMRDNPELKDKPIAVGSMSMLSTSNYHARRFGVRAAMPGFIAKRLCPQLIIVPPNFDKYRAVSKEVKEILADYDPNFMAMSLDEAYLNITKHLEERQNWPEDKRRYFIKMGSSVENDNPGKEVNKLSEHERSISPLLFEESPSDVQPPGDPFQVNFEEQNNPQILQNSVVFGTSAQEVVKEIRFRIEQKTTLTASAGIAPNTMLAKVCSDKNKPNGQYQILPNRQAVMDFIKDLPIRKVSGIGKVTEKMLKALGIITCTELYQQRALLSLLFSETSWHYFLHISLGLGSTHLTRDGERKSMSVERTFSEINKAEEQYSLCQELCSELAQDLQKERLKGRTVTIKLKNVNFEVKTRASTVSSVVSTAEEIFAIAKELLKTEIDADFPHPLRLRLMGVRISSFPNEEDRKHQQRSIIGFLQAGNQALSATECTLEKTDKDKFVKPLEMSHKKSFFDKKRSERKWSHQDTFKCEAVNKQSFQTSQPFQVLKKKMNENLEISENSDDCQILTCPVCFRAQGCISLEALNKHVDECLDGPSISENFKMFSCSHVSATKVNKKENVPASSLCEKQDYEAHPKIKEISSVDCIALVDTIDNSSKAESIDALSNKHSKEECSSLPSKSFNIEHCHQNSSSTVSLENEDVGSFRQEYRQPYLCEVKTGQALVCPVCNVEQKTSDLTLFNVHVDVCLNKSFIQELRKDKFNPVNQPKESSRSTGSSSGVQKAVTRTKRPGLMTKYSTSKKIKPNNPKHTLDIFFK
# Experiment: qHTS for Inhibitors of Polymerase Kappa. [Related pubchem assays (depositor defined):AID588638]
# Type: functional
row,SMILES,Potency
1,O=C(O)C(O)c1ccccc1 (configuration not stated),inactive
2,c1ccc(CNCCNCc2ccccc2)cc1,inactive
